Source: ChEMBL document CHEMBL1129950, “Structural requirements for binding of anandamide-type compounds to the brain cannabinoid receptor” (J Med Chem, 1997)

Sequences of proteins named here, by UniProt entry; tags and fusion partners are left off.
UniProt P20272, whole entry: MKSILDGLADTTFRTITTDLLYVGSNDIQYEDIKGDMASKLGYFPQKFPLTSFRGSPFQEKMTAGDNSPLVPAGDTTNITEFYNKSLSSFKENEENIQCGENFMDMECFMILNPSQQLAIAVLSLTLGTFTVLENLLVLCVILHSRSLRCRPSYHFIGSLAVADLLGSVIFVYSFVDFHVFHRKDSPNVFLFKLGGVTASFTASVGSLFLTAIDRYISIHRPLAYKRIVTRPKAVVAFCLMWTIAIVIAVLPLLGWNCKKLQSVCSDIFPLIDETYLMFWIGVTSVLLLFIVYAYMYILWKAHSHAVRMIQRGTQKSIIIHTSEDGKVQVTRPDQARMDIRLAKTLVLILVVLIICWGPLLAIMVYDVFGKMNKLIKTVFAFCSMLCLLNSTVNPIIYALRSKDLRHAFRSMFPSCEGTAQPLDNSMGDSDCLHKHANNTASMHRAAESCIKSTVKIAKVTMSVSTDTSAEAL

Biological target: Cannabinoid receptor 1 (Rattus norvegicus, UniProt P20272)
Test: In vitro binding affinity was determined against rat brain Cannabinoid receptor 1
Outline: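 Drug was serially diluted in 5 mg/mL fatty-acid-free BSA. Final 1 mL held 45 mM Tris-HCl, 2.7 mM MgCl2, 0.9 mM EDTA and 0.58 mg BSA. Incubation was 30 °C, 90 min. Bound ligand was separated by centrifugation, and pellet tips were scintillation-counted. Ki came from displacement.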

| Structure (SMILES) | Ki |
| --- | --- |
| CCCCC/C=C\C/C=C\C/C=C\C/C=C\CCC(C)C(=O)NCCO (stereo unspecified) | 32.5 nM |
| CCCCC/C=C\C/C=C\CCCCCCCC(=O)NCCO (stereo in doubt; 37) [LINOLEOYLETHANOLAMIDE] | 4600 nM |
| CCCCC/C=C\C/C=C\C/C=C\C/C=C\CCCC(=O)NCCCO | 29.9 nM |
| CCCCC/C=C\C/C=C\CCCCCCCC(=O)NCCO (stereo in doubt; 38) [LINOLEOYLETHANOLAMIDE] | > 25000 nM |
| CCCCC/C=C\C/C=C\C/C=C\C/C=C\CCC(C)(C)C(=O)NC[C@@H](C)O | 154 nM |
| CCCCC/C=C\C/C=C\C/C=C\C/C=C\CCCC(=O)N(CCO)CCO | > 10000 nM |
